Earlier results as cited in US6291405A, “Glycol based drilling fluid” (M-I LLC, priority 1998, dated 2001).

Conditions: in vivo, po; cited from earlier work

CC(O)COC(C)COC(C)CO (stereo not shown) [Tripropylene Glycol, tripropylene glycol]
LD50: ~ 3 gm/KG
